# The list shows a part of the results, in another mix than the full data. Active and inactive are the calls of the source.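 The calls were made as follows: active = inhibition above the mean of all tested compounds plus 3 SD (cut at about 70% in these data); inactive = the rest.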
# Amino acid sequences for entries named in this document (tags omitted).
# UniProt Q9Y5X4, whole entry: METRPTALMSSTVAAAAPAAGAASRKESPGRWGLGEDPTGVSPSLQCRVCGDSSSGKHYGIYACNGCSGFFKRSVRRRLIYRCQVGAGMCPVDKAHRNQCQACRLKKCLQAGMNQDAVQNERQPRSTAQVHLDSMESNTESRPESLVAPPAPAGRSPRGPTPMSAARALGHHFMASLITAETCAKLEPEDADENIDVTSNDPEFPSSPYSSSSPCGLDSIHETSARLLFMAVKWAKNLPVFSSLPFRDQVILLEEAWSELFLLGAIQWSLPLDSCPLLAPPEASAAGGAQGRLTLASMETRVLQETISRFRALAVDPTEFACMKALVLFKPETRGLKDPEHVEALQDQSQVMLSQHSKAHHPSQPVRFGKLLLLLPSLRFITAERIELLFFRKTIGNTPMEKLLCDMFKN
# Biological target: Photoreceptor-specific nuclear receptor (Homo sapiens) (UniProt Q9Y5X4)
# Assay: NCOR release from NR2E3 in cells – cell-based, luminescence, CHO-S, Gal4-NCOR/VP16-NR2E3, primary screen (AID 602229);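 also: 0% = DMSO with NR2E3 transfected cells and 100% = cells lacking NR2E3 construct; higher means lower luciferase signal from less NR2E3 corepressor binding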
# Details: CHO-S Gal4-NCOR/VP16-NR2E3 two-hybrid, luciferase; at 3.98 µM; active compounds read high
row,Compound,inhibition of corepressor binding
1,O=C(NCC1(N2CCCCC2)CCCCC1)c1ccco1,inactive: 15.8%
2,Cn1c(=O)[nH]cc(N(CCCl)CCCl)c1=O,inactive: -16.7%
3,CN(C)c1ccc(C(=O)NCC2(N3CCCCC3)CCCCC2)cc1,inactive: -6.69%
4,Cc1ccccc1NC1(C#N)CCN(Cc2ccccc2)CC1,inactive: -26%
5,CC(C)(C)n1nnnc1C(c1ccnc2ccccc12)N1CCC(n2c(=O)[nH]c3ccccc32)CC1 (stereo not given),inactive: 24.7%
6,CCN1CCC(Nc2cccc(F)c2)CC1,inactive: 13.1%
7,COc1ccc(C(c2nnnn2C2CCCCC2)N2CCC(n3c(=O)[nH]c4ccccc43)CC2)cc1 (stereo not given),inactive: -6.8%
8,Cc1ccc(C(=O)NCC2(N3CCCCC3)CCCCC2)o1,inactive: -3.82%
9,Fc1ccccc1NC1CCN(Cc2ccccc2)CC1,inactive: -16.9%
10,Cc1ccc(NC2(C#N)CCN(Cc3ccccc3)CC2)cc1,inactive: -1.06%
11,CC(=O)N(c1ccccc1)C1CCNCC1,inactive: -11.2%
12,COc1cccc(C(c2nnnn2C2CCCCC2)N2CCC(n3c(=O)[nH]c4ccccc43)CC2)c1OC (stereo not given),inactive: 6.18%
13,CCC(c1nnnn1C1CCCCC1)N1CCC(n2c(=O)[nH]c3ccccc32)CC1 (stereo not given),inactive: -2.45%
14,O=c1[nH]c2ccccc2n1C1CCN(C(c2ccnc3ccccc23)c2nnnn2C2CCCCC2)CC1 (stereo not given),inactive: -5.05%
15,COc1cc(OC)cc(C(=O)NCC2(N3CCCCC3)CCCCC2)c1,inactive: -23.9%
16,CN1CCC(Nc2ccc(Cl)cc2)CC1,inactive: 4.89%
17,COc1cccc(C(=O)N(c2cc(C)cc(C)c2)C2CCN(C(=O)OC(C)(C)C)CC2)c1,inactive: -12.7%
18,COc1cccc(C(c2nnnn2C2CCCC2)N2CCC(n3c(=O)[nH]c4ccccc43)CC2)c1OC (stereo not given),inactive: -15.2%
19,COc1cc(OC)cc(C(=O)NCC2(N3CCOCC3)CCCCC2)c1,inactive: -6.27%
20,CCC(CO)(C(=O)OC1CN2CCC1CC2)c1ccccc1 (stereo not given),inactive: -6.88%

row,Compound,inhibition of corepressor binding
1,CC(C)(C)OC(=O)N1CCC(Nc2ccccc2)CC1,inactive: 16.4%
2,NN(c1ccccc1)C1CCN(CCc2ccccc2)CC1,inactive: -20.8%
3,O=C(O)C1(Nc2ccccc2)CCN(Cc2ccccc2)CC1,inactive: 10%
4,CCCOc1ccc(C(=O)NCC2(N(C)C)CCCCC2)cc1,inactive: -17.3%
5,O=c1[nH]c2ccccc2n1C1CCN(C(c2cc3ccccc3o2)c2nnnn2C2CCCC2)CC1 (stereo not given),inactive: 7.62%
6,CCOc1ncccc1C(=O)NCC1(N2CCOCC2)CCCCC1,inactive: -17.4%
7,CN1CCC(Nc2ccc(F)c(Cl)c2)CC1,inactive: 8.54%
8,O=C(OC1CN2CCC1CC2)C1c2ccccc2C=Cc2ccccc21 (stereo not given),inactive: 8.74%
9,O=c1[nH]c2ccccc2n1C1CCN(C(c2cccs2)c2nnnn2C2CCCC2)CC1 (stereo not given),inactive: -12.2%
10,CCCCn1nnnc1C(c1cccc(OC)c1OC)N1CCC(n2c(=O)[nH]c3ccccc32)CC1 (stereo not given),inactive: 15.5%
11,COc1cccc(C(c2nnnn2C(C)(C)C)N2CCC(n3c(=O)[nH]c4ccccc43)CC2)c1OC (stereo not given),inactive: 22.2%
12,CCOC(=O)N1CCC(Nc2ccc(C)cc2)CC1,inactive: -2.89%
13,N/C(=N\O)c1c(N)no[n+]1[O-],inactive: -48.8%
14,O=c1[nH]c2ccccc2n1C1CCN(C(c2cccs2)c2nnnn2C2CCCCC2)CC1 (stereo not given),inactive: 12.2%
15,COc1ccc(C(=O)NCC2(N3CCOCC3)CCCCC2)cc1OC,inactive: 17.1%
16,O=c1[nH]c2ccccc2n1C1CCN(C(c2ccnc3ccccc23)c2nnnn2C2CCCC2)CC1 (stereo not given),inactive: 8.4%
17,CCCCn1nnnc1C(c1ccccc1)N1CCC(n2c(=O)[nH]c3ccccc32)CC1 (stereo not given),inactive: -4.04%
18,COc1cc(C(=O)NCC2(N3CCOCC3)CCCCC2)cc(OC)c1C,inactive: -0.1%
19,O=C(NCC1(N2CCOCC2)CCCCC1)c1cc(Br)ccc1Cl,inactive: 13.4%
20,CC(C)(C)n1nnnc1C(c1cccc2ccccc12)N1CCC(n2c(=O)[nH]c3ccccc32)CC1 (stereo not given),inactive: 38.6%

row,Compound,inhibition of corepressor binding
1,CN(C)C1(CNC(=O)c2cccc(C#N)c2)CCCCC1,inactive: -10.8%
2,c1ccc(CN2CCC(Nc3ccccc3)CC2)cc1,inactive: -3.1%
3,Cc1cc(N(CCCl)CCCl)ccc1C=O,inactive: 4.03%
4,CCCN1CCC(Nc2cc(OC)cc(OC)c2)CC1,inactive: -11.1%
5,O=c1[nH]c2ccccc2n1C1CCN(C(c2ccccc2)c2nnnn2C2CCCC2)CC1 (stereo not given),inactive: 7.87%
6,N#Cc1ccc(C(=O)NCC2(N3CCCCC3)CCCCC2)cc1,inactive: 20.6%
7,CC(C)(C)OC(=O)N1CCC(N(C(=O)c2ccccc2)c2ccc(Cl)cc2)CC1,inactive: 14.9%
8,O=C(NCC1(N2CCOCC2)CCCCC1)c1cc(=O)[nH]c2ccccc12,inactive: -2.04%
9,COc1cc(C(=O)NCC2(N3CCCCC3)CCCCC2)ccc1OC(F)F,inactive: 30%
10,CCCCn1nnnc1C(c1cccc2ccccc12)N1CCC(n2c(=O)[nH]c3ccccc32)CC1 (stereo not given),inactive: 24.6%
11,CC(C)c1ccc(C(=O)NCC2(N3CCOCC3)CCCCC2)cc1,inactive: -19.8%
12,COc1ccc(NC2CCN(C(=O)OC(C)(C)C)CC2)cc1,inactive: 1.67%
13,CN1CCN(CCOC(=O)C(O)(c2ccccc2)c2ccccc2)CC1,inactive: -6.21%
14,O=C(NCC1(N2CCCCC2)CCCCC1)c1cccc(C(F)(F)F)c1,inactive: -27.4%
15,CCN1CCC(Nc2ccc(Cl)cc2)CC1,inactive: -29.4%
16,N#CC1(Nc2ccccc2)CCN(CCc2ccccc2)CC1,inactive: -10.4%
17,O=c1[nH]c2ccccc2n1C1CCN(C(c2ccccc2OC(F)(F)F)c2nnnn2C2CCCC2)CC1 (stereo not given),inactive: 40.5%
18,CSc1ccc(C(=O)NCC2(N3CCOCC3)CCCCC2)cc1,inactive: -11.3%
19,O=C(NCC1(N2CCCCC2)CCCCC1)c1cccc([N+](=O)[O-])c1,inactive: 3.11%
20,CC(C)(C)n1nnnc1C(c1ccccc1OC(F)(F)F)N1CCC(n2c(=O)[nH]c3ccccc32)CC1 (stereo not given),inactive: 43.2%

# Reference: PubChem BioAssay AID602229 (The Scripps Research Institute Molecular Screening Center, 2012)
